Measured values reported in US10188739B2 (Xenetic Biosciences, Inc., priority 2014, dated 2019).
Several values for one entry are separate records, joined by “and”; a condition that tells them apart may be missing. Equal entries are not always repeated.

How the values were obtained:
Format in all cases: in vivo, CD-1 mice
[1] = Pilot single intranasal dose: lung/liver/kidney/spleen levels of AF647-labelled insulin/Sialong (tissue lysate fluorescence); conditions: nominal 10 minutes post-dose
Protocol: Male CD-1 mice of 8 to 9 weeks of age (18-20 g body weight) were acclimatized for 7 days before being enrolled into the study. Mice were weighed and dosed at 5 μL of dosing material per 20 g of body weight. […] Animals were anesthetized and held with the dorsal end facing down. Dosing materials were administered at a rate of ˜1 μL/10 seconds split equally through both nostrils. Total dosing time ranged from 1.8 to 2.3 minutes. After a nominal 10 minutes post-dose, animals were sacrificed followed by blood collection, perfusion, and tissue collection. The olfactory bulbs were included in the collection of the brain tissues. All tissues were stored at nominal −80° C. until assay. Perfusate contains: 1×PBS pH 7.4, +2.7% w/v BSA+100 U/mL heparin. Lung/Liver/Kidney/Spleen. […] To evaluate recovery and matrix differences between the calibration matrices and study test samples, a spiking recovery experiment was performed (Table 2). […] The RFU correction factor was determined by dividing the response of each analyte spiked into BALB-c lysates (preparation procedures described below) by the response of each analyte spiked into CD-1 homogenate and then extracted. For kidney and liver matrices, there was enough material available to evaluate spiking recovery at two different levels. […] However, due to lack of tissue material, lung and spleen spiking recovery tests could only be performed at one concentration level. Consequently, response corrections were made based on singular values. Briefly, the sample preparation procedures are outlined below: […] For liver, due to the large size of this organ, a 1:1 tissue:lysis buffer ratio was used during homogenization. • 1. Add remaining 9 parts of lysis buffer to liver homogenates • 2. Lyse homogenates with 5 mm stainless steel beads with TissueLyzer by agitation at 25 Hz for 30 min • 3. Further incubate lysates at RT for 30 min on orbital shaker • 4. Pool lysates • 5. […] Centrifuge samples at 13200 rpm for 10 min to pellet debris • 7. Transfer 250 μL of supernatant onto 96-well plate • 8. Read plate at Ex/Em 635/675 4. Assay Performances

[2] = Pilot single intranasal dose: brain levels of AF647-labelled insulin/Sialong (acidified ethanol extraction, tandem enzyme digest, fluorescence); conditions: for Brain Conc.: assay replicates
Protocol: Male CD-1 mice of 8 to 9 weeks of age (18-20 g body weight) were acclimatized for 7 days before being enrolled into the study. Mice were weighed and dosed at 5 μL of dosing material per 20 g of body weight. […] Animals were anesthetized and held with the dorsal end facing down. Dosing materials were administered at a rate of 1 μL/10 seconds split equally through both nostrils. Total dosing time ranged from 1.8 to 2.3 minutes. After a nominal 10 minutes post-dose, animals were sacrificed followed by blood collection, perfusion, and tissue collection. The olfactory bulbs were included in the collection of the brain tissues. All tissues were stored at nominal -80° C. until assay. Perfusate contains: 1×PBS pH 7.4, +2.7% w/v BSA+100 U/mL heparin. […] Briefly, the procedures are outlined below: Assay Day 1 • 1. […] Homogenized brains 10% w/v with ice-cold 0.1 mM HCl diH2O:Ethanol (25:75); the […] test sample brains were homogenized • 3. […] Transferred 0.5 mL of each test sample into tubes from step 1. Assayed all test samples and calibration standards in duplicates • 4. Shake overnight at 4° C. ( 17.5 h) on orbital shaker. […] Centrifuge all samples at 3500×g for 20 min at 4° C. • 6. Collect 0.4 mL of supernatant for each sample • 7. Evaporate until complete dryness under airflow of 7 psi for 70 min at 37° C. • 8. Reconstitute all samples with reaction buffer containing 50 mM Tris pH 8 and 2 mM CaCl2 • 9. Add 1 U of proteinase K to all samples; invert mix well • 10. Incubate all samples at 37° C. for 2 h • 11. Mix samples well and adjust to pH 4 with citric acid; mix well • 12. Add 1280 U of pepsin to all samples; invert mix well • 13. Incubate all samples at 37° C. for 2 h • 14. Vortex mix all samples and sonicate at RT • 15. Centrifuge at 13200 rpm for 10 min at RT • 16. Transfer 250 μL of supernatant of each sample onto 96-well plate • 17. Take readings at Ex/Em of 635/675 nm

[3] = Pilot single intranasal dose: plasma levels of AF647-labelled insulin/Sialong (fluorescence); conditions: nominal 10 minutes post-dose
Protocol: Male CD-1 mice of 8 to 9 weeks of age (18-20 g body weight) were acclimatized for 7 days before being enrolled into the study. Mice were weighed and dosed at 5 μL of dosing material per 20 g of body weight. […] Animals were anesthetized and held with the dorsal end facing down. Dosing materials were administered at a rate of ˜1 μL/10 seconds split equally through both nostrils. Total dosing time ranged from 1.8 to 2.3 minutes. After a nominal 10 minutes post-dose, animals were sacrificed followed by blood collection, perfusion, and tissue collection. The olfactory bulbs were included in the collection of the brain tissues. All tissues were stored at nominal −80° C. until assay. Perfusate contains: 1×PBS pH 7.4, +2.7% w/v BSA+100 U/mL heparin. […] Read plate at Ex/Em 635/675.

[4] = Pharmacokinetics and biodistribution following intranasal delivery (Study 2): brain concentrations over time; conditions: for Ind. Insulin Conc.: LLOQ 45 ng/g; for Insulin Conc in brain, Individual: insulin^AF647 0.90 mg/kg (0.155 μmol insulin/kg) single intranasal dose
Protocol: Animals were weighed and dosed at 5 μL of dosing material per 20 g of body weight. Animals were anesthetized and held with the dorsal end facing down. Dosing materials were administered at a rate of ˜1 μL/10 seconds split equally through both nostrils. […] At nominal time points post-dose, animals were sacrificed followed by blood collection, perfusion (perfusate contained 2.7% w/v BSA and 100 U/mL heparin in 1×PBS pH7.4), and tissue collection. The olfactory bulbs were included in the collection of the brain tissues. All tissues were stored at nominal −80° C. until assay. Whole tissue samples were collected. Brain was divided into two sections longitudinally. Half was assayed as described below and half was snap-frozen and stored at −80 C for storage. Sample matrices and total number of samples collected in the study for each dose group were stored at nominal −80° C. […] Brain tissue samples were assayed using acidified ethanol extraction overnight followed by 4 hours of tandem enzyme digest, as described above. The test articles described above were used as calibration standards.

[5] = insulin^AF647 high dose 3.0 mg/kg intranasal
[6] = insulin^AF647 low dose 0.6 mg/kg intranasal
[7] = insulin^AF647 high dose 3.0 mg/kg intranasal, 3 mg/kg
[8] = brain, individual animals, 5 m post intranasal dose
[9] = insulin^AF647 0.90 mg/kg single intranasal dose, time point 0 m
[10] = insulin^AF647 0.90 mg/kg single intranasal dose, time point 5 m
[11] = insulin^AF647 0.90 mg/kg single intranasal dose, time point 10 m
[12] = insulin^AF647 0.90 mg/kg single intranasal dose, time point 30 m
[13] = insulin^AF647 0.90 mg/kg single intranasal dose, time point 1 h
[14] = insulin^AF647 0.90 mg/kg single intranasal dose, time point 2 h
[15] = insulin^AF647 0.90 mg/kg single intranasal dose, time point 4 h
[16] = insulin^AF647 0.90 mg/kg single intranasal dose, time point 8 h

Substance: Insulin
- Kidney Conc. [1, 5]: <LLOQ
- Liver Conc. [1, 5]: <LLOQ
- Lung Conc. [1, 5]: <LLOQ
- Spleen Conc. [1, 5]: <LLOQ
- Kidney Conc. [1, 6]: <LLOQ
- Liver Conc. [1, 6]: <LLOQ
- Lung Conc. [1, 6]: <LLOQ
- Spleen Conc. [1, 6]: <LLOQ
- Brain Conc. ([2]; insulin^AF647 high dose 3.0 mg/kg intranasal, nominal 10 minutes post-dose, 3 mg/kg): 80.1 ng/g and 82.0 ng/g and 7.52 ng/g and 7.15 ng/g
- Brain % Dose ([2]; insulin^AF647 low dose 0.6 mg/kg intranasal, nominal 10 minutes post-dose): 0.02 % Dose
- Brain Conc. ([2]; insulin^AF647 low dose 0.6 mg/kg intranasal, nominal 10 minutes post-dose, 0.6 mg/kg): 9.87 ng/g and 4.99 ng/g and 22.5 ng/g and 11.3 ng/g
- concentration levels detected in the mouse brain (in words) ([2]; pilot study, 10 minutes post-dose, intranasal, Sialong at both dose levels, insulin even at 3.0 mg/kg): Low concentration levels
- relationship between brain and plasma levels as the dose increased ([2]; pilot study, 10 minutes post-dose, Sialong 2.1 to 10.5 mg/kg, insulin 0.6 to 3.0 mg/kg intranasal): linear relationship
- Plasma % Dose [3, 7]: 0.04 % Dose and 0.03 % Dose
- Plasma Conc. [3, 7]: 52.5 ng/mL and 39.6 ng/mL
- Plasma % Dose [3, 6]: 0.04 % Dose
- Plasma Conc. ([3]; insulin^AF647 low dose 0.6 mg/kg intranasal, 0.6 mg/kg): 14.4 ng/mL and 11.8 ng/mL
- % Dose (Insulin Group) [4, 8]: 0.23%
- Ind. Insulin Conc. [4, 8]: <LLOQ (4×) and 165 ng/g
- Ind. Insulin Conc. ([4]; brain, individual animals, 10 m post intranasal dose): <LLOQ
- Ind. Insulin Conc. ([4]; brain, individual animals, 30 m post intranasal dose): <LLOQ
- Ind. Insulin Conc. ([4]; brain, individual animals, 1 h post intranasal dose): <LLOQ
- Ind. Insulin Conc. ([4]; brain, individual animals, 2 h post intranasal dose): <LLOQ
- Ind. Insulin Conc. ([4]; brain, individual animals, 4 h post intranasal dose): <LLOQ
- Ind. Insulin Conc. ([4]; brain, individual animals, 8 h post intranasal dose): <LLOQ
- Insulin Conc in brain, Individual ([4]; time point 0 m): <LLOQ
- Insulin Conc in brain, Individual ([4]; time point 5 m): <LLOQ (4×) and 165 ng/g
- Insulin Conc in brain, Individual ([4]; time point 10 m): <LLOQ
- Insulin Conc in brain, Individual ([4]; time point 30 m): <LLOQ
- Insulin Conc in brain, Individual ([4]; time point 1 h): <LLOQ
- Insulin Conc in brain, Individual ([4]; time point 2 h): <LLOQ
- Insulin Conc in brain, Individual ([4]; time point 4 h): <LLOQ
- Insulin Conc in brain, Individual ([4]; time point 8 h): <LLOQ
- insulin levels in brain, all time points evaluated ([4]; insulin^AF647 0.90 mg/kg intranasal, except for one animal at the 5-minute time point): below LLOQ
- distribution to the brain (in words) ([4]; insulin^AF647 0.90 mg/kg single intranasal dose, any of the time points evaluated (0 m to 8 h)): not appreciably distributed to the brain
- Insulin Conc in brain, Mean [4, 9]: <LLOQ
- Insulin Conc in brain, Median [4, 9]: <LLOQ
- Insulin Conc in brain, Mean [4, 10]: <LLOQ
- Insulin Conc in brain, Median [4, 10]: <LLOQ
- Insulin Conc in brain, Mean [4, 11]: <LLOQ
- Insulin Conc in brain, Median [4, 11]: <LLOQ
- Insulin Conc in brain, Mean [4, 12]: <LLOQ
- Insulin Conc in brain, Median [4, 12]: <LLOQ
- Insulin Conc in brain, Mean [4, 13]: <LLOQ
- Insulin Conc in brain, Median [4, 13]: <LLOQ
- Insulin Conc in brain, Mean [4, 14]: <LLOQ
- Insulin Conc in brain, Median [4, 14]: <LLOQ
- Insulin Conc in brain, Mean [4, 15]: <LLOQ
- Insulin Conc in brain, Median [4, 15]: <LLOQ
- Insulin Conc in brain, Mean [4, 16]: <LLOQ
- Insulin Conc in brain, Median [4, 16]: <LLOQ
